System: Watanabe rabbits
Test: Macroscopic study of the aortas: surface area of the lesions by planimetry
Assay type: in vivo, rabbit
Conditions: T8, versus the control, FIG. 10
Procedure: After eight weeks, a sampling of serum (about 1 ml) is carried out then the animals are anaesthetized with an injection of heparinized pentobarbital, and finally sacrificed.
On the day of sacrifice, after anaesthesia, in the shortest possible time, the animal is opened along the whole length of the cervico-thoracic region. The aorta is incised as low as possible. Using curved scissors, the aorta is removed from the aortic arch as far as the level of the iliac bifurcation following the vertebral column. The aorta is first cleaned in physiological serum and the fatty tissues are removed from its external tunica. It is fixed for 20 minutes in a 2% paraformaldehyde-2% glutaraldehyde mixture then opened along its length. It is then again immersed in the same fixer for 24 hours, after which the aorta is rinsed in 70% ethanol, then stained with Soudan IV for 15 minutes. It is once again rinsed in 80% ethanol for 20 minutes then under running water for 1 hour (22). […] The images are analyzed by means of planimetry software (Scion Image) which makes it possible to determine the surface of the lesions. Finally the aorta is fixed in the same fixer with a view to microscopic study.

Structure (SMILES): CC(C)c1c(C(=O)Nc2ccccc2)c(-c2ccccc2)c(-c2ccc(F)cc2)n1CC[C@@H](O)C[C@@H](O)CC(=O)O [atorvastatin, Atorvastatin]
- surface area of the lesions (whole aorta): unchanged
- surface area of the lesions (whole aorta) (listed as statin alone): no difference

From patent publication US20080312263A1, “PHARMACEUTICAL COMPOSITIONS FOR THE PREVENTION AND TREATMENT OF ATHEROSCLEROSIS” (UNIVERSITE RENE DESCARTES-PARIS 5, priority 2004, published 2008)
